Columns and labels:
[1] = test system: A431 human squamous cell carcinoma cells; test: Skin cancer intradermal model; format: in vivo, mice; conditions: hydrogel, topical, 2 weeks, estimated 80 mg/kg
[2] = Pharmacokinetic study of phosphosulindac amide and sulindac, single oral dose; format: in vivo, mice
[3] = test system: SW-480 colon cancer cells; test: SW-480 colon cancer xenografts, PSA; conditions: 100 mg/kg/day oral, end of study, vs control
[4] = test system: intestinal tumors of Apc^Min/+ mice; test: Efficacy in Apc^Min/+ mice, PSA; conditions: 100 mg/kg/d oral gavage, 6 weeks, vs control
[5] = test system: AGS human gastric cancer cells; test: Gastric cancer subcutaneous model; format: in vivo, mice; conditions: i.p. in corn oil, 3 weeks; PSA-B 200, PSA-G 200, PIA-B 160, PVA-T 100 mg/kg

CCOP(=O)(OCC)OCCCCNC(=O)CC1=C(C)C(=Cc2ccc([S+](C)[O-])cc2)c2ccc(F)cc21 (stereo not shown)
tumor growth inhibition [1]: 81.1% | blood and tissue levels of intact compound ([2]; compared with corresponding carboxylic ester compound): significant blood and tissue levels of intact compound | Cmax ([2]; read-out: Cmax of PSA, single oral dose 100 mg/kg PSA): 24 µM | detection of intact PSA in serum ([2]; single oral dose 100 mg/kg): undetectable at 24 hours | generation of sulindac or sulindac sulfone ([2]; single oral dose 100 mg/kg): no detectable sulindac or sulindac sulfone | Tmax of PSA ([2]; single oral dose 100 mg/kg PSA): 15 min | AUC0-24 h, PSA administration ([2]; single oral dose 100 mg/kg PSA, label = analyte): 54.04 µM·h | reduction of growth of colon cancer xenografts [3]: 41% | reduction of number of all intestinal tumors [4]: 85% | tumor growth inhibition [5]: 67.7%

Source: patent publication US20130225529A1, “PHOSPHO-ESTER DERIVATIVES AND USES THEREOF” (priority 2012, published 2013)
